According to ChEMBL document CHEMBL5260854, “Discovery of Novel TRPM8 Blockers Suitable for the Treatment of Somatic and Ocular Painful Conditions: A Journey through pKa and LogD Modulation” (J Med Chem, 2021):
The source made the active and inactive calls.

By UniProt entry, the sequences of proteins in these tests, tags left out.
UniProt Q8NER1, whole entry: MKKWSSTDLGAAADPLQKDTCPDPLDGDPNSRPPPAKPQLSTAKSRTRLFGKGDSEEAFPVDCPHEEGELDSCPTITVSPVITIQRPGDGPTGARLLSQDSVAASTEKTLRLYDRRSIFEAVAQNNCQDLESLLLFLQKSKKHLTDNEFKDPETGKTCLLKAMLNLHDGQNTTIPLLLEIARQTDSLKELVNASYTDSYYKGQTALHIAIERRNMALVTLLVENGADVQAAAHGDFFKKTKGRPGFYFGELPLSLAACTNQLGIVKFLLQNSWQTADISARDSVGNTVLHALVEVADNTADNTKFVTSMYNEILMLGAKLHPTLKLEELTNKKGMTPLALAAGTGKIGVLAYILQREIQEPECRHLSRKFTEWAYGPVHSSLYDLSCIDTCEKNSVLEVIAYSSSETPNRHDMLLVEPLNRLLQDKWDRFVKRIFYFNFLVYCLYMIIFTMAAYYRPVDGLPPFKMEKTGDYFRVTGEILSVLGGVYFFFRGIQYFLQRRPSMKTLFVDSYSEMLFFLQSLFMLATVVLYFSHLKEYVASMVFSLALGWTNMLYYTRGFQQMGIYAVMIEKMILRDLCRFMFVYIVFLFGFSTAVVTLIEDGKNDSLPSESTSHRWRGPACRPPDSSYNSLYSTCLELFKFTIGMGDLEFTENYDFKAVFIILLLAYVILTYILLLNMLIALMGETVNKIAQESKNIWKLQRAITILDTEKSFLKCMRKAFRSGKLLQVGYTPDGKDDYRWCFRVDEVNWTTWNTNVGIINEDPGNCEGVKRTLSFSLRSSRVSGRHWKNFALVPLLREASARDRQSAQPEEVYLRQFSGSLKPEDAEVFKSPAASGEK
UniProt Q9HBA0, whole entry: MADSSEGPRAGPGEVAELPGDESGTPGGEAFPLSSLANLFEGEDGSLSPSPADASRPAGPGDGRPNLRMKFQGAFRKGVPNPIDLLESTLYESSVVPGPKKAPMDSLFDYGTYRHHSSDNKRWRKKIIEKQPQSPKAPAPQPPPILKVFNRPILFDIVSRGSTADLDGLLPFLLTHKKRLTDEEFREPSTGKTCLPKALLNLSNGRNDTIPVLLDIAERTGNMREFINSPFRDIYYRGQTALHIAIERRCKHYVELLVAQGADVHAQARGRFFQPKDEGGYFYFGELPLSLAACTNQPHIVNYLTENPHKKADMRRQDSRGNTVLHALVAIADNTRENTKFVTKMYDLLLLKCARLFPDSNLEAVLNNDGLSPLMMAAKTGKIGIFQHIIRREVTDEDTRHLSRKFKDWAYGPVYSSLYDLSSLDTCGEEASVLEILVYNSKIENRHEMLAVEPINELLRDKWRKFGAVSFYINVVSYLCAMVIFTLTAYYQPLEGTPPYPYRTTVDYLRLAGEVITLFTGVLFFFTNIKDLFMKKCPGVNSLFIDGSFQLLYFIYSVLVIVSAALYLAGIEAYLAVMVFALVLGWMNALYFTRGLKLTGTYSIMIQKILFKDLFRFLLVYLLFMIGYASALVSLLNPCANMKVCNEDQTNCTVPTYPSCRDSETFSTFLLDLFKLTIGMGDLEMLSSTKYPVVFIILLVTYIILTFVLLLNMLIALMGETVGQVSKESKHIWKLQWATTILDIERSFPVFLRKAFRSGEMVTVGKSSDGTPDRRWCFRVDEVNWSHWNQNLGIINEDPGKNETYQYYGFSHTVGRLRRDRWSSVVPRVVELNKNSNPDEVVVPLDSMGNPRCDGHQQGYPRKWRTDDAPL
UniProt O75762, whole entry: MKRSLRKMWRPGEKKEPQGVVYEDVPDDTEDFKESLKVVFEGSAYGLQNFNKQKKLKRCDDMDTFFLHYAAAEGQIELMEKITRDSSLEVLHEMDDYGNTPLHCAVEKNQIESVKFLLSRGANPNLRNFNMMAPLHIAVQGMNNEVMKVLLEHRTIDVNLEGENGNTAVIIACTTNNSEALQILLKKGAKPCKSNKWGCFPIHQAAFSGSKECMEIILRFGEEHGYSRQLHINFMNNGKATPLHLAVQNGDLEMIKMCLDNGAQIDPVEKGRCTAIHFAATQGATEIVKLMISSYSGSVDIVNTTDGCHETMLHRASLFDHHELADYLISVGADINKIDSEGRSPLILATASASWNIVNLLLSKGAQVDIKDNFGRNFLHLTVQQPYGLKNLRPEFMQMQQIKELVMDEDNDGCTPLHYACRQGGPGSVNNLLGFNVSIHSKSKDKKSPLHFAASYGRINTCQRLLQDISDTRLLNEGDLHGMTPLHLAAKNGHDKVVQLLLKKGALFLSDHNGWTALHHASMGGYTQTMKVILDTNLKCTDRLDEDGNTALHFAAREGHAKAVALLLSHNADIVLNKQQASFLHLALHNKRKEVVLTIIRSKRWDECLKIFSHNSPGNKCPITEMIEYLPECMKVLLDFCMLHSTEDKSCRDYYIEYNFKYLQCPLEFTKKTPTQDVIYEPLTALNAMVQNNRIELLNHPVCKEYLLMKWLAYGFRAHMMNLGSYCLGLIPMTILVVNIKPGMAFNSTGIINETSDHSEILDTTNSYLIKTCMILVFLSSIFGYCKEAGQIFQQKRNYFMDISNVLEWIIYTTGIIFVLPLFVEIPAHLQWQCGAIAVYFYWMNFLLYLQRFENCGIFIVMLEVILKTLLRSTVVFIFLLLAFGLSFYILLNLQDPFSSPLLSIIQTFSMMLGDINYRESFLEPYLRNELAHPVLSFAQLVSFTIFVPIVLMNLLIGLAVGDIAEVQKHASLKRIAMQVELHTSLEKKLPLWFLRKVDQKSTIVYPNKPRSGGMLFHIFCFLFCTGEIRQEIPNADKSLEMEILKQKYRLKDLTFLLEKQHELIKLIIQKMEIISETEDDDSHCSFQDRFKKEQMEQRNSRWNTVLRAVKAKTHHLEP
UniProt Q15858, whole entry, looked up: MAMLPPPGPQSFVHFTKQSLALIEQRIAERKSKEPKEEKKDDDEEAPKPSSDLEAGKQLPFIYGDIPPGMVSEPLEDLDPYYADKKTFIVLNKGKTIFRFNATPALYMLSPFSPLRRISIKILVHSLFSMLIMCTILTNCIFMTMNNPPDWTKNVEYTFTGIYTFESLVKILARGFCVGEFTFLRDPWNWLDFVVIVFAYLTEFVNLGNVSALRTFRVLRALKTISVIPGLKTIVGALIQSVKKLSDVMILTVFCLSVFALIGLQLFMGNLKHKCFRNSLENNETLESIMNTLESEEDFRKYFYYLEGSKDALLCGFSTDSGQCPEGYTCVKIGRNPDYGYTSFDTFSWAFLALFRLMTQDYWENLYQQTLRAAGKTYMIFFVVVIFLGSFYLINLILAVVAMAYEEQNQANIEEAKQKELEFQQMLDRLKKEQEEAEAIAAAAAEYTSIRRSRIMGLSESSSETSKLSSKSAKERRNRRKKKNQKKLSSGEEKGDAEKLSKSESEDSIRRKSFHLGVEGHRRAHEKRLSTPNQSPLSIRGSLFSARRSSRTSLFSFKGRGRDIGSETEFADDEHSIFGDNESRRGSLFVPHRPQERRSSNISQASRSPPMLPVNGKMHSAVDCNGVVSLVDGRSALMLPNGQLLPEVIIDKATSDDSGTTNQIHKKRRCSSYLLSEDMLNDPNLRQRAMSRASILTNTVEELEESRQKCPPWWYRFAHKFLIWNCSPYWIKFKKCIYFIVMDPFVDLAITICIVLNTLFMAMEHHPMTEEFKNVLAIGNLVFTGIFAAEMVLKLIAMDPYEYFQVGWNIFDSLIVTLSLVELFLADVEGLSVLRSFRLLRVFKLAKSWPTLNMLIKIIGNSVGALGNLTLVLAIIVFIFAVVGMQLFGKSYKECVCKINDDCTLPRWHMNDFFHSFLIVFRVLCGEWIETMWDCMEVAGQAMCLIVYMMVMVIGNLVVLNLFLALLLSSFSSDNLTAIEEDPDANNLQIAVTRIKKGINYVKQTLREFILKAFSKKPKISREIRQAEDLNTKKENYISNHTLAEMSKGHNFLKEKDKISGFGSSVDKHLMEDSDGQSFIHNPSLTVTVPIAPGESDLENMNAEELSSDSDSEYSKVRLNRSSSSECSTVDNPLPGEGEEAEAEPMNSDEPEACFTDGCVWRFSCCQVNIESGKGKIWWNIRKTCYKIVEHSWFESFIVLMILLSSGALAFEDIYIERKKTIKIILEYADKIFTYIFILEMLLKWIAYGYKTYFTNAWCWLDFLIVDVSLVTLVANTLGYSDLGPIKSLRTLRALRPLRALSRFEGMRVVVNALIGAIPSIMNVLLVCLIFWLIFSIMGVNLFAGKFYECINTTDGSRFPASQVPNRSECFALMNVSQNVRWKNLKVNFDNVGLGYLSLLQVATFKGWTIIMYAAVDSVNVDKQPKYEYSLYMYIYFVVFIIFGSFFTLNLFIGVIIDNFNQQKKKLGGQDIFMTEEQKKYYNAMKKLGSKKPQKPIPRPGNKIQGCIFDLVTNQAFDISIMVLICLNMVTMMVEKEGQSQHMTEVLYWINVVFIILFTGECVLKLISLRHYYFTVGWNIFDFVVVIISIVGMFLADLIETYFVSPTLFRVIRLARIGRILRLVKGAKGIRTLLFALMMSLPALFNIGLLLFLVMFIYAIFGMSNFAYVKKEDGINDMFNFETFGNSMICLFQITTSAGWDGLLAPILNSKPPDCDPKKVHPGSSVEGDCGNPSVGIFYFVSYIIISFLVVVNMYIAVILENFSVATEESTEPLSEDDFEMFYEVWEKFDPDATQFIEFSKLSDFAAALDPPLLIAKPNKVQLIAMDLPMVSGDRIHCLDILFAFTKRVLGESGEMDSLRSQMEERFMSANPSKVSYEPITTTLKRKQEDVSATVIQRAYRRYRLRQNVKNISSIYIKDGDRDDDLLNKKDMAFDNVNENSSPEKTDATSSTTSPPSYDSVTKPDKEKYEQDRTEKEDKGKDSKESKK

Columns and labels:
[1] = target: Transient receptor potential cation channel subfamily V member 1 (Homo sapiens) (UniProt Q8NER1); test: Inhibition of TRPV1 (unknown origin) upto 100 uM
[2] = target: Transient receptor potential cation channel subfamily V member 4 (Homo sapiens) (UniProt Q9HBA0); test: Inhibition of TRPV4 (unknown origin) upto 100 uM
[3] = target: Transient receptor potential cation channel subfamily A member 1 (Homo sapiens) (UniProt O75762); test: Inhibition of TRPA1 (unknown origin) upto 100 uM
[4] = target: Sodium channel protein type 9 subunit alpha (Homo sapiens) (UniProt Q15858); test: Inhibition of Nav1.7 (unknown origin)

Measured: inhibition

O=C(c1sc(-c2cccc(F)c2)nc1O)N1CCCO1
inactive: all assays above
